Source: patent US5256533A, “As a probe of serotonin uptake harmaline” (Board of Regents, The University of Texas System, priority 1990, dated 1993)

Columns and labels:
[1] = target: [^3 H]Choline binding sites of brain tissue; test: Inhibition of [3H]choline binding by brain homogenates; conditions: concentration causing 50% inhibition of isotope binding
Procedure: (§1) TABLE 1 illustrates the general inhibitory effects of beta carbolines on neurotransmitter binding by brain tissue. Samples of brain tissue rich in the respective neurotransmitter binding sites were obtained, homogenized, washed and incubated with a series of beta carboline concentrations. After subsequent additions of tritiated neurotransmitters, the extent of beta carboline inhibition of labeled neurotransmitter binding was measured. As shown, a variety of beta carbolines were effective antagonists of several neurotransmitters. IC50 values indicate concentrations of the indicated beta carboline which causes a 50% inhibition of the respective neurotransmitter isotope binding with brain homogenates. […] These beta carbolines may be used as vital stains for the respective neurotransmitter systems, accumulating in living tissue.

[2] = target: [^3 H]GABA binding sites of brain tissue; test: Inhibition of [3H]GABA binding by brain homogenates; conditions: concentration causing 50% inhibition of isotope binding
Procedure: as §1

[3] = target: [^3 h]Noradrenaline binding sites of brain tissue; test: Inhibition of [3H]noradrenaline binding by brain homogenates; conditions: concentration causing 50% inhibition of isotope binding
Procedure: as §1

[4] = system: ^3 H-serotonin uptake by retina; test: Inhibition of 3H-serotonin uptake in retina (FIG. 5); type: cell-based

Structure (SMILES) | IC50 [1] [µM] | IC50 [2] [µM] | IC50 [3] [µM] | Inhibition of ^3 H-serotonin uptake by retina [4]
Cc1nccc2c1[nH]c1ccccc12 [1-methyl-beta-carboline] | 85 | 168 | 44 | 
CN(C)CCCN1c2ccccc2CCc2ccc(Cl)cc21 [chlormipramine] |  |  |  | antagonized
CN(C)CCC=C1c2ccccc2CCc2ccccc21 [amitryptaline] |  |  |  | antagonized
